{
  "source": "ChEMBL document CHEMBL4842359",
  "about": "“1,3-Diarylpyrazolyl-acylsulfonamides as Potent Anti-tuberculosis Agents Targeting Cell Wall Biosynthesis in Mycobacterium tuberculosis” (J Med Chem, 2021)",
  "system": "Mycobacterium tuberculosis",
  "experiment": "microbe, parasite or virus in culture",
  "settings": "H37Rv, 336 h",
  "data": [
    {"smiles": "CS(=O)(=O)NC(=O)CCc1cn(-c2ccc(Br)cc2)nc1-c1ccncc1", "values": [
      {"measurement": "MIC", "value": 1.2, "unit": "µM"}
    ]}
  ]
}
